This is an account of results in patent publication US20050175695A1, “Carvedilol free base, salts, anhydrous forms or solvates thereof, corresponding pharmaceutical compositions, controlled release formulations, and treatment or delivery methods” (priority 2003, published 2005).

Where a name gives a salt, the structure may show the parent alone.

The nature of data set [1]: Solubility in water of carvedilol free base and monocitrate salt over time (Table 11). Format: physicochemical. Particulars: 25° C., 1 hr.
Data set [2] in a line: Aqueous solubility at 25° C. of carvedilol free base and three salts (Table 13). Format: physicochemical.

As for `COc1ccccc1OCCNCC(O)COc1cccc2[nH]c3ccccc3c12` (centres unmarked) [Carvedilol Free Base], the “Aqueous Solubility” value in data set [1] is listed as 0.0098 mg of carvedilol free base/mL of solution; in data set [2] (24 hr) it was 0.024 mg of Carvedilol free base/mL of solution.
Regarding `COc1ccccc1OCCNCC(O)COc1cccc2[nH]c3ccccc3c12` (centres unmarked) [HBr salt, Carvedilol HBr], the “Aqueous Solubility” value in data set [2] (1 hr) is on record as 0.62 mg of Carvedilol free base/mL of solution; in data set [2] (4 hr), 0.61 mg of Carvedilol free base/mL of solution; in data set [2] (24 hr, HBr), 0.61 mg of Carvedilol free base/mL of solution.
